Source: US7723122

Biological target: protein A (UniProt P38507)
Test: SPR, BIACORE 3000, protein A immobilised on CM5 chip, 10 ug/ml IgG in flow at 20 ul/min

anti-BSA mouse IgG (molecular weight: 150,000) (antibody)
koff: 0.00056 s⁻¹ | kon: 140000 M⁻¹ s⁻¹
